Experimental data as given in patent publication US7488745B2, “Compounds for the treatment of inflammatory disorders” (Schering Corporation, priority 2004, dated 2009).

Protein sequences, listed by entry. Tags and fused reporters are not part of them. Residues count along the entry.
UniProt P78536, 215-477 S266A/N452Q limits assumed: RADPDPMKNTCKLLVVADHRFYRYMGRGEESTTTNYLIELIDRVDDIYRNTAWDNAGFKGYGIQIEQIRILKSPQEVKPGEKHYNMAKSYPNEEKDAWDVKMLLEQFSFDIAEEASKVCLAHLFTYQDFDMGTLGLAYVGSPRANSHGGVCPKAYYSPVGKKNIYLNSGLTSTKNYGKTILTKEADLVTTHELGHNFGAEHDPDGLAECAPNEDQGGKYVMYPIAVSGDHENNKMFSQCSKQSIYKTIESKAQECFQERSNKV

Target: purified catalytic domain of recombinant human TACE (rhTACEc) (Homo sapiens, UniProt P78536, N452Q/S266A)
Assay: TACE kinetic assay: cleavage of internally quenched peptide substrate SPDL-3 (fluorescence)
Settings: Ki (nM)
[1] = TACE inhibitory activity, class letters
[2] = Specific TACE inhibitory activity (Ki values)

Row | Compound | Ki [1] | Ki (TABLE 6000, Ki printed as class symbols A-D) | Ki [2]
1 | O=C1NC(=O)[C@@](CN2Cc3ccc(F)cc3C2=O)(c2ccc(F)cc2)N1 (single isomer, unassigned) [Compound 22] | 100 to 1000 nM | – | –
2 | O=C1NC(=O)[C@](CN2Cc3ccc(F)cc3C2=O)(c2ccc(F)cc2)N1 (single isomer, unassigned) [Compound 23] | < 10 nM | – | –
3 | COc1ccc2c(c1)CN(CC1(C)NC(=O)NC1=O)C2=O (stereo not shown) [Compound 8] | 10 to 100 nM | – | –
4 | CC1(CN2Cc3cc(Br)ccc3C2=O)NC(=O)NC1=O (stereo not shown) [Compound 10] | 100 to 1000 nM | – | –
5 | COc1ccc2c(c1)CN(CC1(c3ccc(F)cc3)NC(=O)NC1=O)C2=O (stereo not shown) [Compound 11] | < 10 nM | – | –
6 | CC1(CN2Cc3cc(OCC(F)(F)F)ccc3C2=O)NC(=O)NC1=O (stereo not shown) [Compound 12] | 10 to 100 nM | – | –
7 | CC1(CN2Cc3cc(-c4nccs4)ccc3C2=O)NC(=O)NC1=O (stereo not shown) [Compound 13] | 100 to 1000 nM | – | –
8 | COc1ccc2c(c1)CN(CC1(c3ccc(-c4ccccc4)cc3)NC(=O)NC1=O)C2=O (stereo not shown) [Compound 14] | < 10 nM | – | –
9 | CC1(CN2Cc3ccc(Cl)cc3C2=O)NC(=O)NC1=O (stereo not shown) [Compound 15] | 10 to 100 nM | – | –
10 | O=C1NC(=O)C(CN2Cc3ccc(F)cc3C2=O)(c2ccc(F)cc2)N1 (stereo not shown) [Compound 17] | < 10 nM | – | –
11 | O=C1NC(=O)C(CN2Cc3ccc(F)cc3C2=O)(c2ccc(Br)cc2)N1 (stereo not shown) [Compound 18] | < 10 nM | – | –
12 | COc1ccc2c(c1)CN(CC1(c3ccc(-c4cc(F)c(F)c(F)c4)cc3)NC(=O)NC1=O)C2=O (stereo not shown) [Compound 27] | 10 to 100 nM | – | –
13 | COc1ccc2c(c1)CN(CC1(c3ccc(-c4nccs4)cc3)NC(=O)NC1=O)C2=O (stereo not shown) [Compound 28] | < 10 nM | – | –
14 | COc1ccc2c(c1)CN(CC1(c3ccc(-n4cccn4)cc3)NC(=O)NC1=O)C2=O (stereo not shown) [Compound 29] | < 10 nM | – | –
15 | COc1ccc2c(c1)CN(CC1(c3ccc(-c4ccncc4)cc3)NC(=O)NC1=O)C2=O (stereo not shown) [Compound 30] | < 10 nM | – | –
16 | CC1(CN2Cc3cc(O)ccc3C2=O)NC(=O)NC1=O (stereo not shown) [Compound 31] | 10 to 100 nM | – | –
17 | CC1(CN2Cc3ccc(O)cc3C2=O)NC(=O)NC1=O (stereo not shown) [Compound 32] | 100 to 1000 nM | – | –
18 | COc1ccc2c(c1)CN(CC1(CN3Cc4cc(OC)ccc4C3=O)NC(=O)NC1=O)C2=O [Compound 33] | 10 to 100 nM | – | –
19 | O=C1NC(=O)C(CN2Cc3cc(Cl)ccc3C2=O)(CN2Cc3cc(Cl)ccc3C2=O)N1 [Compound 34] | 10 to 100 nM | – | –
20 | COc1ccc2c(c1)CN(CC1(CNC(=O)c3ccc4cc[nH]c4c3)NC(=O)NC1=O)C2=O (stereo not shown) [Compound 35] | < 10 nM | – | –
21 | COc1ccc2c(c1)CN(CC1(CNC3CCCC3)NC(=O)NC1=O)C2=O (stereo not shown) [Compound 36] | 10 to 100 nM | – | –
22 | COc1ccc2c(c1)CN(CC1(CN(C)C)NC(=O)NC1=O)C2=O (stereo not shown) [Compound 37] | 100 to 1000 nM | – | –
23 | COc1ccc2c(c1)CN(CC1(CNC3CCC3)NC(=O)NC1=O)C2=O (stereo not shown) [Compound 38] | 10 to 100 nM | – | –
24 | CC(C)S(=O)(=O)NCC1(CN2Cc3ccccc3C2=O)NC(=O)NC1=O (stereo not shown) [Compound 39] | 100 to 1000 nM | – | –
25 | O=C1NC(=O)C(CN2Cc3ccc(Cl)cc3C2=O)(CN2C[C@@H]3CCCN3C2=O)N1 (stereo partly shown) [Compound 40] | > 1000 nM | – | –
26 | O=C1NC(=O)C(CNc2ncccn2)(CN2Cc3ccc(Cl)cc3C2=O)N1 (stereo not shown) [Compound 41] | 100 to 1000 nM | – | –

Row | Compound | Ki [1] | Ki (TABLE 6000, Ki printed as class symbols A-D) | Ki [2]
27 | COc1ccc2c(c1)C(=O)N(CC1(c3ccc(-c4ccccc4CCN)cc3)NC(=O)NC1=O)C2 (stereo not shown) [Compound 96] | – | 10 to 100 nM | –
28 | COc1cccc2c1CN(CC1(c3ccc(F)cc3)NC(=O)NC1=O)C2=O (stereo not shown) [Compound 103] | > 1000 nM | – | –
29 | O=C1NC(=O)C(CN2Cc3cc(F)c(F)cc3C2=O)(c2ccc(Br)cc2)N1 (stereo not shown) [Compound 104] | 10 to 100 nM | – | –
30 | O=C1NC(=O)[C@@](CN2Cc3cc(Br)ccc3C2=O)(c2ccc(F)cc2)N1 [Compound 105] | 10 to 100 nM | – | –
31 | O=C1NC(=O)[C@@](CN2Cc3cc(Cl)c(Cl)cc3C2=O)(c2ccc(F)cc2)N1 [Compound 106] | < 10 nM | – | –
32 | CC1(CN2Cc3cc(Cl)c(Cl)cc3C2=O)NC(=O)NC1=O (stereo not shown) [Compound 107] | 10 to 100 nM | – | –
33 | O=C1NC(=O)[C@](CN2Cc3ccc(Cl)cc3C2=O)(c2ccccc2)N1 [Compound 109] | 10 to 100 nM | – | –
34 | O=C1NC(=O)C(CN2Cc3ccc(F)cc3C2=O)(c2ccc(-c3ccncc3)cc2)N1 (stereo not shown) [Compound 110] | < 10 nM | – | –
35 | O=C1NC(=O)[C@](CN2Cc3ccc(F)cc3C2=O)(c2ccc(-c3ccncc3)cc2)N1 [Compound 111] | < 10 nM | – | 0.48 nM
36 | CN1C(=O)NC(=O)[C@]1(CN1Cc2ccc(F)cc2C1=O)c1ccc(-c2ccncc2)cc1 [Compound 112] | 10 to 100 nM | – | –
37 | O=C1NC(=O)[C@](CN2Cc3ccc(F)cc3C2=O)(c2ccc(-c3cccnc3)cc2)N1 [Compound 113] | < 10 nM | – | –
38 | O=C1NC(=O)[C@](CN2Cc3ccc(F)cc3C2=O)(c2ccc(-c3ccccn3)cc2)N1 [Compound 114] | < 10 nM | – | –
39 | O=C1NC(=O)[C@](CN2Cc3ccc(F)cc3C2=O)(c2ccc(-c3ccnc(O)c3)cc2)N1 [Compound 115] | < 10 nM | – | –
40 | O=C1NC(=O)[C@](CN2Cc3ccc(F)cc3C2=O)(c2ccc(-c3ccncc3F)cc2)N1 [Compound 116] | < 10 nM | – | –
41 | O=C1NC(=O)[C@](CN2Cc3ccc(F)cc3C2=O)(c2ccc(-c3cnccn3)cc2)N1 [Compound 117] | < 10 nM | – | –
42 | O=C1NC(=O)[C@](CN2Cc3ccc(F)cc3C2=O)(c2ccc(-c3cncnc3)cc2)N1 [Compound 118] | < 10 nM | – | –
43 | O=C1NC(=O)[C@](CN2Cc3ccc(F)cc3C2=O)(c2ccc(-c3nccs3)cc2)N1 [Compound 120] | < 10 nM | – | 4 nM
44 | O=C1NC(=O)[C@@](CN2Cc3ccc(F)cc3C2=O)(c2ccc(-c3ccnc(Cl)c3)cc2)N1 [Compound 121] | > 1000 nM | – | –
45 | COc1cc(-c2ccc([C@]3(CN4Cc5ccc(F)cc5C4=O)NC(=O)NC3=O)cc2)ccn1 [Compound 122] | < 10 nM | – | –
46 | O=C1NC(=O)[C@](CN2Cc3ccc(F)cc3C2=O)(c2ccc(-c3cc(O)ncc3Cl)cc2)N1 [Compound 123] | < 10 nM | – | 1.2 nM
47 | COc1ncc(-c2ccc([C@]3(CN4Cc5ccc(F)cc5C4=O)NC(=O)NC3=O)cc2)cn1 [Compound 124] | < 10 nM | – | –
48 | O=C1NC(=O)[C@@](CN2Cc3ccc(F)cc3C2=O)(c2ccc(-c3ccc(C(F)(F)F)cc3)cc2)N1 [Compound 125] | > 1000 nM | – | –
49 | O=C1NC(=O)[C@](CN2Cc3ccc(F)cc3C2=O)(c2ccc(-c3ccc(F)cc3)cc2)N1 [Compound 126] | < 10 nM | – | –
50 | O=C1NC(=O)[C@](CN2Cc3ccc(F)cc3C2=O)(c2ccc(-c3ccc(C(F)(F)F)cc3)cc2)N1 [Compound 127] | 10 to 100 nM | – | –
51 | O=C1NC(=O)[C@@](CN2Cc3ccc(F)cc3C2=O)(c2ccc(-c3cccc(Cl)c3)cc2)N1 [Compound 128] | < 10 nM | – | –
52 | O=C1NC(=O)[C@@](CN2Cc3ccc(F)cc3C2=O)(c2ccc(-c3ccccc3C(F)(F)F)cc2)N1 [Compound 129] | 100 to 1000 nM | – | –

Row | Compound | Ki [1] | Ki (TABLE 6000, Ki printed as class symbols A-D) | Ki [2]
53 | O=C1NC(=O)[C@](CN2Cc3ccc(F)cc3C2=O)(c2ccc(-c3cccc(Cl)c3)cc2)N1 [Compound 131] | < 10 nM | – | –
54 | O=C1NC(=O)[C@](CN2Cc3ccc(F)cc3C2=O)(c2ccc(-c3ccccc3C(F)(F)F)cc2)N1 [Compound 133] | < 10 nM | – | –
55 | O=C1NC(=O)[C@](CN2Cc3ccc(F)cc3C2=O)(c2ccc(-c3ccc(F)cc3F)cc2)N1 [Compound 134] | < 10 nM | – | –
56 | O=C1NC(=O)[C@](CN2Cc3ccc(F)cc3C2=O)(c2ccc(-c3cc(F)ccc3F)cc2)N1 [Compound 135] | < 10 nM | – | –
57 | O=C1NC(=O)[C@@](CN2Cc3ccc(Cl)cc3C2=O)(c2ccc(Br)cc2)N1 [Compound 137] | 100 to 1000 nM | – | –
58 | O=C1NC(=O)[C@](CN2Cc3ccc(Cl)cc3C2=O)(c2ccc(Br)cc2)N1 [Compound 138] | < 10 nM | – | –
59 | O=C1NC(=O)[C@](CN2Cc3ccc(Cl)cc3C2=O)(c2ccc(N3CCOCC3)cc2)N1 [Compound 139] | < 10 nM | – | 2.8 nM
60 | O=C1NC(=O)[C@](CN2Cc3ccc(N4CCOCC4)cc3C2=O)(c2ccc(N3CCOCC3)cc2)N1 [Compound 140] | 100 to 1000 nM | – | –
61 | O=C1NC(=O)[C@](CN2Cc3ccc(Cl)cc3C2=O)(c2ccc(-c3ccncc3)cc2)N1 [Compound 143] | < 10 nM | – | 1.87 nM
62 | Cn1cc(-c2ccc([C@]3(CN4Cc5ccc(F)cc5C4=O)NC(=O)NC3=O)cc2)cn1 [Compound 146] | < 10 nM | – | –
63 | O=C1NC(=O)[C@](CN2Cc3ccc(F)cc3C2=O)(c2ccc(-c3ccsc3)cc2)N1 [Compound 147] | < 10 nM | – | –
64 | O=C1NC(=O)[C@](CN2Cc3ccc(F)cc3C2=O)(c2ccc(-c3cccs3)cc2)N1 [Compound 148] | < 10 nM | – | –
65 | O=C1NC(=O)[C@](CN2Cc3ccc(F)cc3C2=O)(c2ccc(-c3ccc4[nH]ccc4c3)cc2)N1 [Compound 149] | < 10 nM | – | –
66 | O=C1NC(=O)[C@](CN2Cc3ccc(F)cc3C2=O)(c2ccc(-c3cccc4ncccc34)cc2)N1 [Compound 150] | < 10 nM | – | –
67 | O=C1NC(=O)[C@@](CN2Cc3ccc(F)cc3C2=O)(c2ccc(-c3cccc4cccnc34)cc2)N1 [Compound 153] | 100 to 1000 nM | – | –
68 | Cc1cscc1-c1ccc([C@@]2(CN3Cc4ccc(F)cc4C3=O)NC(=O)NC2=O)cc1 [Compound 154] | 100 to 1000 nM | – | –
69 | O=C1NC(=O)[C@](CN2Cc3ccc(F)cc3C2=O)(c2ccc(-c3cccc4cccnc34)cc2)N1 [Compound 155] | < 10 nM | – | 1.05 nM
70 | Cc1cscc1-c1ccc([C@]2(CN3Cc4ccc(F)cc4C3=O)NC(=O)NC2=O)cc1 [Compound 156] | < 10 nM | – | –
71 | Cc1n[nH]c(C)c1-c1ccc([C@]2(CN3Cc4ccc(F)cc4C3=O)NC(=O)NC2=O)cc1 [Compound 159] | < 10 nM | – | –
72 | O=C1NC(=O)[C@](CN2Cc3ccc(F)cc3C2=O)(c2ccc(-c3nc4ccccc4s3)cc2)N1 [Compound 160] | < 10 nM | – | –
73 | O=C1NC(=O)[C@](CN2Cc3ccc(F)cc3C2=O)(c2ccc(-c3ncccn3)cc2)N1 [Compound 161] | < 10 nM | – | –
74 | O=C1NC(=O)[C@@](CN2Cc3ccc(F)cc3C2=O)(c2ccc(-c3ncccn3)cc2)N1 [Compound 162] | 100 to 1000 nM | – | –
75 | O=C1NC(=O)C(CN2Cc3ccc(F)cc3C2=O)(c2ccc(-c3cnc4ccccc4c3)cc2)N1 (stereo not shown) [Compound 163] | 10 to 100 nM | – | –
76 | O=C1NC(=O)C(CN2Cc3ccc(F)cc3C2=O)(c2ccc(-c3cn[nH]c3)cc2)N1 (stereo not shown) [Compound 164] | < 10 nM | – | –
